These results are taken from publication PMC3826719, “Impact of Polymorphic Variants on the Molecular Pharmacology of the Two-Agonist Conformations of the Human β1-Adrenoceptor” (PLoS ONE, 2013).

Protein sequences, listed by entry. Tags and fused reporters are not part of them.
UniProt P08588, whole entry G389R: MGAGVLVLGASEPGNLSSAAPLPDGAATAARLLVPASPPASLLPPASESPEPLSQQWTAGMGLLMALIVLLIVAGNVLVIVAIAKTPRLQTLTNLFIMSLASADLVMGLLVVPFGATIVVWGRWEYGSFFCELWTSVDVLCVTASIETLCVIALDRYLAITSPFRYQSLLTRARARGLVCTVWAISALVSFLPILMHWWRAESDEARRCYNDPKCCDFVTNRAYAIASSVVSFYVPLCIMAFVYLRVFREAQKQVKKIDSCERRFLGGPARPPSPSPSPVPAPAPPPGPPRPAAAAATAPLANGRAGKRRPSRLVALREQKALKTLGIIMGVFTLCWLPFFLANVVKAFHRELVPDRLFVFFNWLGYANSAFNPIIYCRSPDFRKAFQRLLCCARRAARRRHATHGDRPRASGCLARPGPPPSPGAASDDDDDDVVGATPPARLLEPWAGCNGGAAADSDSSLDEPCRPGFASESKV
UniProt P08588, whole entry S49G: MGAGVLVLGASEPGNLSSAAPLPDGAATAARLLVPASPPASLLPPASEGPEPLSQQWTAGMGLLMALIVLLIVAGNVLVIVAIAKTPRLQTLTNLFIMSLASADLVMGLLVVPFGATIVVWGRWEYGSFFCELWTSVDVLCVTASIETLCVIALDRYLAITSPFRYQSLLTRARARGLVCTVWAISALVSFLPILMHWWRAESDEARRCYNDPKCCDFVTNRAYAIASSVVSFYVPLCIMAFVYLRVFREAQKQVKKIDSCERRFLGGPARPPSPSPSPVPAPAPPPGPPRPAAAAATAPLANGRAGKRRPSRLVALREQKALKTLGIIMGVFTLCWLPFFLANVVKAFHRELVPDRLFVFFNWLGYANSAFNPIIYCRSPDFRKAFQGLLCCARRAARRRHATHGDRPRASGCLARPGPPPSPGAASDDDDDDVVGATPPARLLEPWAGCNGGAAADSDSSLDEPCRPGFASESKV
UniProt P08588, whole entry: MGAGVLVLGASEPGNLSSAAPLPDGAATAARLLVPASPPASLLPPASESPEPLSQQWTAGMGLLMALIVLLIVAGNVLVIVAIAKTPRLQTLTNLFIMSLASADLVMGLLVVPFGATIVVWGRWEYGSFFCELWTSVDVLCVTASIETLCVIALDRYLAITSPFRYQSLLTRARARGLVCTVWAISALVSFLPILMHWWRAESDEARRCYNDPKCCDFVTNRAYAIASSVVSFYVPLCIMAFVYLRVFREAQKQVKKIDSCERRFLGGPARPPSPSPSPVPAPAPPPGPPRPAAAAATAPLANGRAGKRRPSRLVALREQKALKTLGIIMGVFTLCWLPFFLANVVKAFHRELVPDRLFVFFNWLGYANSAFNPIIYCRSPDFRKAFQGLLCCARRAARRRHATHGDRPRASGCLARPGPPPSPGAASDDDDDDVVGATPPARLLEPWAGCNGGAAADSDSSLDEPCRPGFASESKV

Molecules are shown by their SMILES.

The target in assay [1] is T1, human β1-adrenoceptor polymorphic variant Ser49/Arg389 (Homo sapiens, UniProt P08588, G389R). Description: cell-based. The note with it: Log KD.
The target in assay [2] is T2, human β1-adrenoceptor polymorphic variant Gly49/Gly389 (Homo sapiens, UniProt P08588, S49G). Nature of the assay: cell-based. The note with it: Log KD.
For assay [3], the target named is T2, human β1-adrenoceptor polymorphic variant Gly49/Gly389. The note with it: Log EC50, 3H-cAMP accumulation, main stable Gly49/Gly389 cell line.
The target of assay [4] is T1, human β1-adrenoceptor polymorphic variant Ser49/Arg389. The note with it: Log EC50, 3H-cAMP accumulation, main stable Ser49/Arg389 cell line. (Changes in cAMP serve as a functional read-out for many G protein-coupled receptors.)
In assay [5] the target is T3, human wildtype β1-adrenoceptor (Ser49/Gly389) (Homo sapiens, UniProt P08588). Nature of the assay: cell-based. The note with it: Log KD.
In assay [6] the target is T3, human wildtype β1-adrenoceptor (Ser49/Gly389). Nature of the assay: 3H-cAMP accumulation, wildtype. The note with it: Log EC50, 3H-cAMP accumulation, main stable WT Ser49/Gly389 cell line.

Take `CNC[C@H](O)c1ccc(O)c(O)c1` [Adrenaline]: the equilibrium dissociation constant (Kd) (commonly the equilibrium constant for the complex coming apart) in assay [1] (competition with 3H-CGP 12177, Ser49/Arg389 transiently transfected populations) is 28.8 µM; in assay [1] (competition with 3H-CGP 12177, additional stable Ser49/Arg389 cell line W81), 2.88 µM; in assay [1] (competition with 3H-CGP 12177, additional stable Ser49/Arg389 cell line W93), 11.2 µM; in assay [1] (competition with 3H-CGP 12177, whole cells, main stable CHO cell line Ser49/Arg389), 4.68 µM; in assay [2] (competition with 3H-CGP 12177, Gly49/Gly389 transiently transfected populations) it was 25.7 µM; in assay [2] (competition with 3H-CGP 12177, additional stable Gly49/Gly389 cell line V6) it was 7.76 µM. For the same molecule, the Kd in assay [2] (competition with 3H-CGP 12177, additional stable Gly49/Gly389 cell line V87) is 10.2 µM; in assay [2] (competition with 3H-CGP 12177, whole cells, main stable CHO cell line Gly49/Gly389), 11 µM; in assay [5] (competition with 3H-CGP 12177, WT transiently transfected populations), 20.9 µM; in assay [5] (competition with 3H-CGP 12177, additional stable WT cell line T3), 23.4 µM; in assay [5] (competition with 3H-CGP 12177, additional stable WT cell line T88), 14.1 µM; in assay [5] (competition with 3H-CGP 12177, whole cells, main stable CHO cell line WT (Ser49/Gly389)) it was 11 µM. Further, the EC50 (in general, the concentration giving half of the maximal effect) in assay [3] is 0.257 µM; in assay [4], 0.12 µM; in assay [6], 0.209 µM.
